Data on 3 molecules can be found in paper PMC9671780 (Bioorganic Chemistry, 2022).

The target of the assay is SARS-CoV-2 M^pro (Severe acute respiratory syndrome coronavirus 2, UniProt P0DTD1). In words: biochemical. The note with it: IC50 against SARS-CoV-2 M^pro, Table 1 and text.
`Cc1nn(-c2ccc(Cl)cc2)c2c1C(c1cccc(Cl)c1Cl)C(C#N)=C(N)O2` (stereo not drawn) [Compound 26, 6-Amino-1-(4-chlorophenyl)-4-(2,3-dichlorophenyl)-3-methyl-1,4-dihydropyrano[2,3-c]pyrazole-5-carbonitrile] displayed an IC50 of 41.8 ± 2.1 µM.
With `Cc1nn(-c2ccc(Cl)cc2)c2c1C(c1cc(Cl)ccc1Cl)C(C#N)=C(N)O2` (stereo not drawn) [Compound 28, 6-Amino-1-(4-chlorophenyl)-4-(2,5-dichlorophenyl)-3-methyl-1,4-dihydropyrano[2,3-c]pyrazole-5-carbonitrile], it took 16.4 ± 0.8 µM to reach half-maximal inhibition (IC50).
For the molecule `COc1cc(C2C(C#N)=C(N)Oc3c2c(C)nn3-c2ccc(Cl)cc2)ccc1O` (stereo not drawn) [Compound 32, 6-Amino-1-(4-chlorophenyl)-4-(4-hydroxy-3-methoxyphenyl)-3-methyl-1,4-dihydropyrano[2,3-c]pyrazole-5-carbonitrile], the IC50 was found to be 14.6 ± 0.7 µM.

A word on the IC50: it is the concentration needed to halve the response being measured. A higher IC50 goes with weaker potency.
